Measured values taken from patent publication US20230212116A1, “SARS-COV-2 MAIN PROTEASE INHIBITORS” (TEXAS A&M UNIVERSITY SYSTEM, priority 2020, published 2023).

These compounds were tested against T1, SARS-CoV-2 M^Pro (Severe acute respiratory syndrome coronavirus 2, UniProt P0DTD1) (assay: biochemical). Details: not given.
For CC(C)(C)C[C@H](NC(=O)[C@@H](NC(=O)NC(C)(C)C)C(C)(C)C)C(=O)N[C@H](C=O)C[C@@H]1CCNC1=O [MPI55, (S)-2-((S)-2-(3-(tert-butyl)ureido)-3,3-dimethylbutanamido)-4,4-dimethyl-N-((S)-1-oxo-3-((S)-2-oxopyrrolidin-3-yl)propan-2-yl)pentanamide], the IC50 was 0.0563 ± 0.0038 µM.
CC(C)(C)NC(=O)N[C@H](C(=O)N1CC2(CC2)C[C@H]1C(=O)N[C@H](C=O)C[C@@H]1CCNC1=O)C(C)(C)C [MPI56, (S)-5-((S)-2-(3-(tert-butyl)ureido)-3,3-dimethylbutanoyl)-N-((S)-1-oxo-3-((S)-2-oxopyrrolidin-3-yl)propan-2-yl)-5-azaspiro[2.4]heptane-6-carboxamide] gave an IC50 of 0.0234 ± 0.0002 µM.
Work on CC(C)(C)CC(=O)N[C@H](C(=O)N1C[C@H]2[C@@H]([C@H]1C(=O)N[C@@H](C[C@@H]1CCNC1=O)C(=O)C(N)=O)C2(C)C)C(C)(C)C [MPI85, (1R,2S,5S)-N-((S)-4-amino-3,4-dioxo-1-((S)-2-oxopyrrolidin-3-yl)butan-2-yl)-3-((S)-2-(3,3-dimethylbutanamido)-3,3-dimethylbutanoyl)-6,6-dimethyl-3-azabicyclo[3.1.0]hexane-2-carboxamide] yielded an IC50 of 0.147 ± 0.019 µM.

Each compound was assayed against T1, SARS-CoV-2 M^Pro (assay: not given). Details: read-out: Enzymatic IC50.
With CCNC(=O)C(=O)[C@H](C[C@@H]1CCNC1=O)NC(=O)[C@@H]1[C@@H]2[C@H](CN1C(=O)[C@@H](NC(=O)NC(C)(C)C)C(C)(C)C)C2(C)C [MPI58, (1R,2S,5S)-3-((S)-2-(3-(tert-butyl)ureido)-3,3-dimethylbutanoyl)-N-((S)-4-(ethylamino)-3,4-dioxo-1-((S)-2-oxopyrrolidin-3-yl)butan-2-yl)-6,6-dimethyl-3-azabicyclo[3.1.0]hexane-2-carboxamide] the IC50 was 0.075 ± 0.009 µM.
Compound C[C@@H](OC(C)(C)C)[C@H](NC(=O)OCc1ccccc1)C(=O)N1C[C@H]2[C@@H]([C@H]1C(=O)N[C@H](C=O)C[C@@H]1CCNC1=O)C2(C)C [MPI67, benzyl ((2S,3R)-3-(tert-butoxy)-1-((1R,2S,5S)-6,6-dimethyl-2-(((S)-1-oxo-3-((S)-2-oxopyrrolidin-3-yl)propan-2-yl)carbamoyl)-3-azabicyclo[3.1.0]hexan-3-yl)-1-oxobutan-2-yl)carbamate] has an IC50 of 0.12 ± 0.014 µM.
CC(C)(C)[C@H](NC(=O)OCc1ccccc1)C(=O)N1C[C@H]2[C@@H]([C@H]1C(=O)N[C@H](C=O)C[C@@H]1CCNC1=O)C2(C)C [MPI73, benzyl ((S)-1-((1R,2S,5S)-6,6-dimethyl-2-(((S)-1-oxo-3-((S)-2-oxopyrrolidin-3-yl)propan-2-yl)carbamoyl)-3-azabicyclo[3.1.0]hexan-3-yl)-3,3-dimethyl-1-oxobutan-2-yl)carbamate] gave an IC50 of 0.059 ± 0.0072 µM.
Compound C[C@@H](OC(C)(C)C)[C@H](NC(=O)NC(C)(C)C)C(=O)N[C@@H](CC1CCCCC1)C(=O)N[C@H](C=O)C[C@@H]1CCNC1=O [MPI74, (2S,3R)-3-(tert-butoxy)-2-(3-(tert-butyl)ureido)-N-((S)-3-cyclohexyl-1-oxo-1-(((S)-1-oxo-3-((S)-2-oxopyrrolidin-3-yl)propan-2-yl)amino)propan-2-yl)butanamide] has an IC50 of 0.097 ± 0.0106 µM.
